Data: patent US8357671B2, “High affinity Siglec ligands” (priority 2005, dated 2013)

Amino acid sequences for entries named in this document (tags omitted). Chains listed by the source or under a name are the forms on record and can include a tag or linker. Residues count along the entry.
UniProt P35329, 22-351 with tags or gaps limits assumed: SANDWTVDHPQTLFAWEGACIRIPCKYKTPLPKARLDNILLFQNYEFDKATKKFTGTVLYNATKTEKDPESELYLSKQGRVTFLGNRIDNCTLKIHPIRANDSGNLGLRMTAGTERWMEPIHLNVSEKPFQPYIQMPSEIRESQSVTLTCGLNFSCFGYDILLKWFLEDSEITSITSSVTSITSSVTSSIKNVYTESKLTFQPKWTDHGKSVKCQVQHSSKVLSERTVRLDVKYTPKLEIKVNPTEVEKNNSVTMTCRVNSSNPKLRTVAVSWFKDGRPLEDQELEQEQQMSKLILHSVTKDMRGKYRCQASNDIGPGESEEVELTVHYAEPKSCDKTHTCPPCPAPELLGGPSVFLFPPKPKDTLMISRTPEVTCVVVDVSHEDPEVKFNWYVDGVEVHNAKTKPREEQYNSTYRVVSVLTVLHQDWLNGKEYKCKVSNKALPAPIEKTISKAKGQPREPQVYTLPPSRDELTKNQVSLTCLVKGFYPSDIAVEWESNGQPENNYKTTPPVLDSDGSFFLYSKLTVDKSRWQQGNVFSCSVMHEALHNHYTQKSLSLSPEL
UniProt P20273, 20-330 with tags or gaps limits assumed: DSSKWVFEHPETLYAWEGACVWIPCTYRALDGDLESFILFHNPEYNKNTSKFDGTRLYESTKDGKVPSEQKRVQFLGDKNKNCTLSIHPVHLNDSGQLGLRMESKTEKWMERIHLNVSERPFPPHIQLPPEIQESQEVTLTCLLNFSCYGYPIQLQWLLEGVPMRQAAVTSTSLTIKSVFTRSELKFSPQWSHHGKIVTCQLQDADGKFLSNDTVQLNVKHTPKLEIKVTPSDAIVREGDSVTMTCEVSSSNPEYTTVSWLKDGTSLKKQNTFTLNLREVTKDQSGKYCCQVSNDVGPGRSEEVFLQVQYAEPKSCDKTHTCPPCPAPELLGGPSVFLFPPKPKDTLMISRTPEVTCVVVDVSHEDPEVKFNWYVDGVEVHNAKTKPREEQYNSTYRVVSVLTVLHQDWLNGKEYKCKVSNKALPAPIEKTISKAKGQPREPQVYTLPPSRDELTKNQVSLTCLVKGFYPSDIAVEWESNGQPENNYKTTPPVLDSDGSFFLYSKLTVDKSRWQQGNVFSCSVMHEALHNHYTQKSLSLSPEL

Columns and labels:
mouse CD22 = mouse CD22 (Mus musculus, UniProt P35329); assay: ELISA inhibition assay: CD22-Fc chimera binding to immobilized NeuGc-LN
Protocol: (§1) FIG. 1A-B illustrate that sialosides with derivation at position 9 that includes a neutral core and a hydrophobic moiety are potent inhibitors for CD22. Similar inhibitors can be made by derivation at position 5. […] FIG. 1B graphically illustrates competitive inhibition of selected sialoside inhibitors. Inhibitors were added with soluble CD22-Fc chimeras to block the chimera binding to immobilized NeuAcα2-6Galβ1-4GlcNAc (NeuAc-LN, human CD22, hCD22) or NeuGcα2,6Galβ1-4GlcNAc (NeuGc-LN, mouse CD22, mCD22). Data are the average +/−S.D. of triplicate determinations and are representative of two individual assays.
(§2) ELISA inhibition assays: For inhibition assays, high binding 96 well microtiter plates (Corning Costar) were coated with neutravidin by incubation with 50 ul of 1 mg/ml Neutravidin (Pierce Biotechnology) in 50 mM Na bicarbonate pH 9.5 overnight at 4° C. The wells were then washed with PBS and blocked with PBS containing 5 mg/ml BSA for 1 hr at 37° C. Fifty microliters of a selected biotinylated sialoside (0.33 uM) was added to each well, and allowed to bind for 1 hr at room temperature. […]
(§3) The CD22-Fc chimera employed was produced as described in Blixt et al. (J. Biol. Chem. 278: 31007-19 (2003)) and diluted to 0.1 mg/ml into HBSS (with 5 mg/ml BSA and 1 mM EDTA). […] The reaction was stopped with 50 ul of 2.5 M H2SO4 and the optical density at 450 nm (OD450) was measured.

human CD22 = human CD22 (Homo sapiens, UniProt P20273); assay: ELISA inhibition assay: CD22-Fc chimera binding to immobilized NeuAc-LN
Protocol: as §1, §2, §3

COC1(C(=O)O)CC(O)C(NC(C)=O)C(C(O)C(O)CNC(=O)Cc2ccc(-c3ccccc3)cc2)O1 (stereo not shown)
IC50 (mouse CD22; read-out: IC 50 value mCd22, inhibition of CD22-Fc binding to immobilized NeuGcα2,6LacNAc): 220 µM
rIP mCd22 (relative inhibitory potency) (mouse CD22; relative to NeuGc-LN = 1): 1
IC50 (human CD22; read-out: IC 50 value hCd22, inhibition of CD22-Fc binding to immobilized NeuAcα2,6LacNAc): 50 µM
rIP hCd22 (relative inhibitory potency) (human CD22; relative to NeuAc-LN = 1): 4.4
